From paper PMC5650142, “GPR40 partial agonists and AgoPAMs: Differentiating effects on glucose and hormonal secretions in the rodent” (PLoS ONE, 2017)

Protein sequences, listed by entry. Tags and fused reporters are not part of them.
UniProt O14842, whole entry: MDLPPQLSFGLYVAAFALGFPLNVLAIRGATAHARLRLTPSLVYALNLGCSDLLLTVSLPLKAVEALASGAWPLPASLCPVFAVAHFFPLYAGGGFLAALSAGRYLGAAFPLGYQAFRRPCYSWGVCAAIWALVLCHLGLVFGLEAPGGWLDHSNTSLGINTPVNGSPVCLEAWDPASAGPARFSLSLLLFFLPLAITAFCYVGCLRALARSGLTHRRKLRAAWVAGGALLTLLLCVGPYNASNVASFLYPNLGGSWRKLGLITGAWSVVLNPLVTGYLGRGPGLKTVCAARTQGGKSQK

Target: human GPR40 (Homo sapiens, UniProt O14842)
Experiment: GPR40 binding assay, AgoPAM tracer [3H]25 ([3H]AP9);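 note: 100% bound is tracer binding in DMSO-only wells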
Parameters: expressed in transfected cells; host or cells: CHO / CHO-K1 cells, membrane preparation
Conditions: radioligand L-005306257; dose 10.0433 nM
Protocol: Two small molecule tracers, the partial agonist [3H][…] and the AgoPAM [3H]25, are used to measure compound affinity at each site as described previously. Because of the allosteric coupling of the two sites and the nature of the assay, addition of a compound will either displace (binds to same site) or augment (binds to allosterically coupled site) radiotracer. Membranes expressing GPR40 were prepared from CHO cells stably expressing human GPR40. […] Sigma P8830) and were homogenized in 50 ml aliquots with a motor-driven glass Dounce homogenizer, 15 strokes at 1900 rpm on wet ice, repeating once. Homogenates were centrifuged at 2200 rpm for 10 min at 4°C. Supernatants were carefully removed and pooled. Homogenization and centrifugation were repeated until the debris pellet was translucent to maximize membrane recovery. Supernatants were then centrifuged at […] rpm for 20 min. at 4°C. […] Protein concentration was determined by Pierce BCA kit. […] The beads and membrane mixture is then vigorously mixed for 30 minutes at room temperature prior to addition to the assay. […] The plates are allowed to settle for 16 hours and then counted on a TopCount scintillation counter (PE). […] Maximal % bound and IC50 are then determined for each test compound. […] The plate is briefly mixed and incubated for 3-18 h at room temperature, before it is read on a MicroBeta plate counter (Perkin Elmer, MS, USA).

Cc1cc(OCCCS(C)(=O)=O)cc(C)c1-c1cccc(COc2ccc3c(c2)OC[C@H]3CC(=O)O)c1 [TAK-875, reference compound]
%Bound: 118.83%
